The list shows a part of the results, in another mix than the full data. The source made the active and inactive calls.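 The calls were made as follows: active = inhibition above the mean of all tested compounds plus 3 SD (cut at about 24% in these data); inactive = the rest.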
molecular target: Platelet-activating factor acetylhydrolase IB subunit alpha2 (Homo sapiens) (UniProt P68402); experiment: PAFAH1B2 enzyme inhibitors, primary screen, biochemical, fluorescence polarization, human (AID 492953); details: recombinant PAFAH1B2, FP-rhodamine activity probe, at 3.39 µM, hits give high values;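 also: 0% = enzyme with DMSO and 100% = wells lacking PAFAH1B2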

By UniProt entry, the sequences of proteins in these tests, tags left out.
UniProt P68402, whole entry: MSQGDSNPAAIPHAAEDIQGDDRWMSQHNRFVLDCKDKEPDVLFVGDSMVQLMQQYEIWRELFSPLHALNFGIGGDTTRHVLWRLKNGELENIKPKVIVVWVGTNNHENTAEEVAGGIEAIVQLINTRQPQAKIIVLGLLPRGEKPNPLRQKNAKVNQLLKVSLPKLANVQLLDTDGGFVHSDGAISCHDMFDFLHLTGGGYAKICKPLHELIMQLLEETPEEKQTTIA

| SMILES | inhibition |
| --- | --- |
| Cc1ccc(NC2(C#N)CCN(Cc3ccccc3)CC2)cc1 | inactive: 0.38% |
| Fc1ccccc1NC1CCN(Cc2ccccc2)CC1 | inactive: 0.55% |
| Cc1ccc(C(=O)NCC2(N3CCCCC3)CCCCC2)o1 | inactive: -1.66% |
| COc1cc(OC)cc(C(=O)NCC2(N3CCCCC3)CCCCC2)c1 | inactive: 2.18% |
| CC(=O)N(c1ccccc1)C1CCNCC1 | inactive: -5.53% |
| CN(C)c1ccc(C(=O)NCC2(N3CCCCC3)CCCCC2)cc1 | inactive: -0.22% |
| Cn1c(=O)[nH]cc(N(CCCl)CCCl)c1=O | inactive: 3.41% |
| O=C(NCC1(N2CCCCC2)CCCCC1)c1ccco1 | inactive: 1.93% |
| CCN1CCC(Nc2cccc(F)c2)CC1 | inactive: -2.23% |
| Cc1ccccc1NC1(C#N)CCN(Cc2ccccc2)CC1 | inactive: -0.32% |
| CCCOc1ccc(C(=O)NCC2(N(C)C)CCCCC2)cc1 | inactive: 7.99% |
| O=C(O)C1(Nc2ccccc2)CCN(Cc2ccccc2)CC1 | inactive: 1.88% |
| CC(C)(C)OC(=O)N1CCC(Nc2ccccc2)CC1 | inactive: -2.66% |
| CN1CCC(Nc2ccc(F)c(Cl)c2)CC1 | inactive: -1.6% |
| CCOc1ncccc1C(=O)NCC1(N2CCOCC2)CCCCC1 | inactive: 2.72% |
| CN1CCC(Nc2ccc(Cl)cc2)CC1 | inactive: 1.11% |
| CCC(CO)(C(=O)OC1CN2CCC1CC2)c1ccccc1 (centres undefined) | inactive: -2.06% |
| COc1cccc(C(=O)N(c2cc(C)cc(C)c2)C2CCN(C(=O)OC(C)(C)C)CC2)c1 | inactive: 2.03% |
| COc1cc(OC)cc(C(=O)NCC2(N3CCOCC3)CCCCC2)c1 | inactive: 5.47% |
| COc1ccc(C(=O)NCC2(N3CCOCC3)CCCCC2)cc1OC | inactive: 7.2% |
| O=C(NCC1(N2CCOCC2)CCCCC1)c1cc(Br)ccc1Cl | inactive: 5.27% |
| COc1cc(C(=O)NCC2(N3CCOCC3)CCCCC2)cc(OC)c1C | inactive: 7.11% |
| O=C(OC1CN2CCC1CC2)C1c2ccccc2C=Cc2ccccc21 (centres undefined) | inactive: 0.87% |
| N/C(=N\O)c1c(N)no[n+]1[O-] | inactive: 1.67% |
| CCOC(=O)N1CCC(Nc2ccc(C)cc2)CC1 | inactive: 7.24% |

| SMILES | inhibition |
| --- | --- |
| CC(C)(C)OC(=O)N1CCC(N(C(=O)c2ccccc2)c2ccc(Cl)cc2)CC1 | inactive: 0.97% |
| N#Cc1ccc(C(=O)NCC2(N3CCCCC3)CCCCC2)cc1 | inactive: 0.23% |
| Cc1cc(N(CCCl)CCCl)ccc1C=O | inactive: 9.25% |
| CCCN1CCC(Nc2cc(OC)cc(OC)c2)CC1 | inactive: 1.48% |
| c1ccc(CN2CCC(Nc3ccccc3)CC2)cc1 | inactive: 1.6% |
| CN(C)C1(CNC(=O)c2cccc(C#N)c2)CCCCC1 | inactive: 4.88% |
| O=C(NCC1(N2CCCCC2)CCCCC1)c1cccc([N+](=O)[O-])c1 | inactive: 6.5% |
| CSc1ccc(C(=O)NCC2(N3CCOCC3)CCCCC2)cc1 | inactive: -1.25% |
| N#CC1(Nc2ccccc2)CCN(CCc2ccccc2)CC1 | inactive: 5.76% |
| CCN1CCC(Nc2ccc(Cl)cc2)CC1 | inactive: 2% |
| O=C(NCC1(N2CCCCC2)CCCCC1)c1ccc(OC(F)F)cc1 | inactive: 2.63% |
| CC(C)c1ccc(C(=O)NCC2(N3CCOCC3)CCCCC2)cc1 | inactive: 3.64% |
| COc1ccc(NC2CCN(C(=O)OC(C)(C)C)CC2)cc1 | inactive: 3.17% |
| CN1CCN(CCOC(=O)C(O)(c2ccccc2)c2ccccc2)CC1 | inactive: 5.24% |
| O=C(NCC1(N2CCOCC2)CCCCC1)c1cc(=O)[nH]c2ccccc12 | inactive: 5.62% |
| COc1cc(C(=O)NCC2(N3CCCCC3)CCCCC2)ccc1OC(F)F | inactive: -3.1% |
| O=C(NCC1(N2CCCCC2)CCCCC1)c1cccc(C(F)(F)F)c1 | inactive: 6.73% |
| O=C(NCC1(N2CCOCC2)CCCCC1)c1cc(F)c(F)cc1Cl | inactive: 9.13% |
| COc1cc(OC)c(C(=O)NCC2(N(C)C)CCCCC2)cc1OC | inactive: -1.04% |
| CN(C)c1cccc(C(=O)NCC2(N3CCCCC3)CCCCC2)c1 | inactive: -2.17% |
| COc1ccc(CN(CCCl)CCCl)cc1Cl | inactive: 1.29% |
| CC(C)c1ccc(NC2CCN(C(=O)OC(C)(C)C)CC2)cc1 | inactive: 3.07% |
| CCCOc1ccc(C(=O)NCC2(N(C)C)CCCCC2)cc1OC | inactive: -1.07% |
| CN1CCC(Nc2cccc(F)c2)CC1 | inactive: 7.88% |
| O=C(NCC1(N2CCCCC2)CCCCC1)c1cncc(Br)c1 | inactive: 1.16% |

| SMILES | inhibition |
| --- | --- |
| Cc1cccc(NC2(C#N)CCN(Cc3ccccc3)CC2)c1 | inactive: 1.4% |
| CSc1ccccc1C(=O)NCC1(N2CCCCC2)CCCCC1 | inactive: 3.18% |
| O=C(NCC1(N2CCCCC2)CCCCC1)c1cccs1 | inactive: -2.77% |
| O=C(NCC1(N2CCCCC2)CCCCC1)c1ccc(=O)[nH]c1 | inactive: 7.73% |
| CC(C)(C)OC(=O)N1CCC(N(C(=O)c2ccccc2)c2ccc(F)cc2)CC1 | inactive: 3.59% |
| COc1ccc(C(=O)NCC2(N3CCCCC3)CCCCC2)c(OC)c1OC | inactive: 8.32% |
| COc1ccc(C(=O)NCC2(N3CCCCC3)CCCCC2)cc1 | inactive: 4.28% |
| CCOC(=O)N1CCC(Nc2ccc(OC)cc2)CC1 | inactive: 3.86% |
| COc1ccc(Cl)cc1C(=O)NCC1(N2CCOCC2)CCCCC1 | inactive: -2.13% |
| O=C(NCC1(N2CCCCC2)CCCCC1)c1ccc(Cl)s1 | inactive: 6.87% |
| N#CC1(Nc2ccccc2)CCN(Cc2ccccc2)CC1 | inactive: 8.08% |
| O=C(OC1CN2CCC1CC2)C1c2ccccc2Oc2ccccc21 (centres undefined) | inactive: 1.45% |
| O=C(NCC1(N2CCOCC2)CCCCC1)c1cc2ccccc2o1 | inactive: 3.88% |
| Cc1cc(C)cc(N(C(=O)c2ccccc2)C2CCN(C(=O)OC(C)(C)C)CC2)c1 | inactive: 4.07% |
| O=C(NCC1(N2CCCCC2)CCCCC1)c1ccc(Cl)nc1 | inactive: 6.66% |
| CCOC(=O)N1CCC(Nc2ccc(F)cc2)CC1 | inactive: -0.94% |
| COc1ccc(NC2CCN(CCc3ccccc3)CC2)c(OC)c1 | inactive: 4.96% |
| CCCCOc1ccc(C(=O)NCC2(N3CCOCC3)CCCCC2)cc1 | inactive: -1.06% |
| O=P1(N(CCCl)CCCl)SCCCS1 | inactive: 0.91% |
| O=C(NCC1(N2CCCCC2)CCCCC1)c1ccc(F)cc1 | inactive: 3.5% |
| CCOc1ccc(C)cc1CN(CCCl)CCCl | inactive: 4.05% |
| O=C1CCN(Cc2ccccc2)CC1 | inactive: -7.27% |
| CCOC(=O)N1CCC(Nc2cccc(C)c2)CC1 | inactive: 0.89% |
| COc1cc(C(=O)NCC2(N(C)C)CCCCC2)ccc1OC(F)F | inactive: 0.01% |
